TCR activator – activators of T cell receptors; primary human leukocytes, anti-CD3, IL-2 HTRF, 48 h; Potency, µM (doses to about 9.22 µM), usual class: activators; 330,000 tested, under 10 active; AID 504894
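Primary human leukocytes were stimulated with a-CD3 beads plus compounds for 48 hr without co-stimulation; secreted IL-2 was quantified by HTRF using a-IL-2-K (europium cryptate) and a-IL-2-d2, excited at 320nm with acceptor emission read at 665nm.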
Nrf2 activator – activates Nrf2 signaling. AREc32 ARE-luciferase reporter (MCF7-derived line), luminescence, 24 h. Potency, µM (highest dose often 46.1 µM), hits mostly activators. actives 0.31% (n = 410,000). AID 624171; note: nearly all actives have a fitted effect of over 65% in size
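AREc32 cells carrying an ARE-driven firefly luciferase reporter were seeded at 1000 cells/well in OPTI-MEM with 5% FBS, then exposed to compound for 24 hr at 37 deg C. Luminescence was read with Steady-Glo after 30 min at RT.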
Nrf2 block – blocks Nrf2 signaling | Potency, µM (highest dose often 46 µM), actives largely listed as inhibitors | A549 ARE-Fluc reporter, luciferase luminescence, 18-24 h | actives 2.1% (n = 360,000); note: nearly all actives have a fitted effect of over 60% in size
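Nrf2 activity is the BugLite luminescence, read 15 min after reagent at room temperature, following CellTiter-Fluor cytotoxicity readout (30 min, 37C). Compound titrations were applied for 18-24 h to 5000 A549 ARE_Fluc cells/well in 5% FBS OPTI-MEM.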
A549 tox-1 – kills or reduces viability of A549 cells in Nrf2 counter-screen. Potency, µM (doses to about 46 µM), hits mostly inhibitors. A549 ARE-Fluc cells, CellTiter-Fluor viability, 18-24 h. actives 0.16% (n = 390,000). AID 504648
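Cytotoxicity counterscreen: CellTiter-Fluor fluorescence was measured in A549 ARE_Fluc cells after 18-24 h of compound exposure in a concentration series. The subsequent BugLite luminescent read reports ARE-luciferase activity.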
miR-21 FLuc – miR-21 reporter, rising signal | 340,000 tested, under 10 active | AID 2288 | HeLa miR-21 FLuc reporter, luciferase, 48 h | Potency, µM (titrated, usually from 38.3 µM); active = well fitted rising curve with a large enough effect; inconclusive = small, poorly fitted or top-dose-only effect; inactive = no such curve, though single readings can be large or run the other way;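 further: miR-21 action dims this reporter so a rising signal means less miR-21 action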
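Using DMEM plus 10% FBS, HeLa miR-21-FLuc cells are incubated with test compounds (final up to about 40uM) for 48 hours; firefly luciferase signal is then imaged following reagent-mediated lysis.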
ClpP mod – qHTS Assay for Activators of ClpP | ATP-dependent Clp protease proteolytic subunit (Bacillus subtilis (strain 168)), P80244 | purified B. subtilis ClpP, FRET peptide cleavage, 20 min | Potency, µM (series often up to 57.5 µM) | actives 1.9% (n = 340,000) | AID 651965, 2013; active = well fitted falling curve with a large enough effect; inconclusive = small, poorly fitted or top-dose-only effect; inactive = no such curve, though single readings can be large or run the other way; note: the source files actives as falling curves though it sought activators and does not explain the sign; nearly all actives have a fitted effect of over 65% in size
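ClpP 10 microg/mL final, pH 8 Tris/KCl buffer with BSA, glycerol, Tween-20; compound pinned in; FRET-FV substrate; RT 20 min; Ex320/Em430; ΔFRET vs ADEP 5.8 microM, DMSO, no enzyme.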
FLuc enzyme inh – firefly luciferase inhibition, Nrf2 hit validation; shares compounds with Nrf2 block; purified firefly luciferase, luminescence inhibition; Potency, µM (titrated, usually from 57.5 µM), most hits filed as inhibitors; actives 4% (n = 1,400); note: nearly all actives have a fitted effect of over 65% in size
A549 tox-2 – counter-screen for Nrf2 inhibitors: cytotoxicity in A549 ARE cells; Potency, µM (doses to about 46.1 µM), actives largely listed as inhibitors; actives 2% (n = 1,400); A549 ARE-Fluc cells, cytotoxicity counterscreen; shares compounds with Nrf2 block; AID 720523;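 note: cells exposed to compounds for 18 to 24 hours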
ARE-Fluc inh – confirmation of Nrf2 inhibitors in A549 ARE reporter cells. shares compounds with Nrf2 block. A549 ARE-firefly luciferase reporter, luminescence. Potency, µM (series often up to 46.1 µM), usual class: inhibitors. actives 74% (n = 1,400). AID 720524; note: nearly all actives have a fitted effect of over 65% in size
ClpP inh valid – inhibits B. subtilis ClpP protease, hit validation | actives 40% (n = 470) | shares compounds with ClpP mod | Potency, µM (doses to about 57.5 µM), usual class: inhibitors | purified B. subtilis ClpP, FRET-FV substrate cleavage, 20 min; note: nearly all actives have a fitted effect of over 70% in size
Hits are given with their value; – = inactive; ? = inconclusive; · = no result given; [ ] = another dose, or the depositor's remark. An excerpt weighted towards active compounds, which were near 3.7% of everything screened. Unless noted, calls come from the whole dose curve; as a rule, active = well fitted curve in the direction sought with a large enough effect; inconclusive = small, poorly fitted or top-dose-only effect, or another doubt; inactive = no such curve, though single readings can be large; an effect the other way counts as inactive or inconclusive.

SMILES	TCR activator	Nrf2 activator	Nrf2 block	A549 tox-1	miR-21 FLuc	ClpP mod	FLuc enzyme inh	A549 tox-2	ARE-Fluc inh	ClpP inh valid
Cc1cnc(NC(=O)C2CC(=O)N(c3cccc(Cl)c3)C2)s1 (centres undefined)	–	–	2.06µM	?	–	–	–	?	·	·
COc1ccc(C2=NN(c3nc(-c4ccc(CNC(C)=O)cc4)cs3)C(c3ccco3)C2)cc1 (centres undefined)	–	–	?	–	–	·	·	·	·	·
CCOCCCn1c(=N)c(C(=O)NC(C)c2ccccc2)cc2c(=O)n3cccc(C)c3nc21 (centres undefined)	·	–	–	–	–	–	·	·	·	·
CCc1ccccc1-n1nnc(-c2nsc(NC(=O)c3ccc(C)c(C)c3)n2)c1C	·	–	8.2µM	–	?	?	–	–	20.6µM	·
CCOC(=O)[C@]12CCCC=C1N(Cc1cccc3ccccc13)C(=O)[C@H](CC(=O)NCc1ccc(OC)c(OC)c1)C2	·	–	·	·	·	–	·	·	·	·
CCN(CC)S(=O)(=O)c1ccc2oc(C(=O)Nc3ccc(OC)cc3OC)c(C)c2c1	–	–	3.66µM	–	–	–	–	–	14.6µM	·
CCN(CC)S(=O)(=O)c1ccc2oc(C(=O)NCc3ccc(F)cc3)c(C)c2c1	–	–	6.51µM	–	?	–	–	–	23.1µM	·
CC(=O)c1ccc(OC(=O)COc2ccccc2Cl)cc1	–	–	–	–	–	–	·	·	·	·
CCCCOCCCNc1ncnc2c1[nH]c1ccccc12	–	–	9.2µM	–	–	28.2µM	–	–	11.6µM	·
Cn1cnnc1SCC(=O)Nc1sc2c(c1C#N)CCCCC2	–	–	?	–[1.84 µM]	–	–	·	·	·	·
N#Cc1c(NC(=O)CSc2ncn[nH]2)sc2c1CCCCC2	·	–	0.366µM	–	?	–	9.53µM	–	1.64µM	·
COc1ccc(CC(=O)Nc2ccncc2Cl)cc1	–	–	5.17µM	–	–	–	–	–	?	·
CCOc1ccc(Br)cc1C1=CC(=O)C[C@H](c2ccc(OC)cc2)C1	–	–	–	–	·	–	·	·	·	·
COC(=O)CSc1ncnc2c1sc1nc3c(cc12)COC(C)(C)C3	–	–	2.91µM	–	–	·	?	–	7.31µM	·
Cc1ccc(NC(=O)COc2coc(CN3CCc4ccccc43)cc2=O)cc1Cl	–	–	?	–	·	·	·	·	·	·
CC(=O)Nc1sc(N/N=C/c2ccccc2)nc1-c1ccc(C)cc1	–	–	–	–	–	–	·	·	·	·
CCCc1sc(N/N=C/c2ccccn2)nc1-c1ccc(Br)cc1	–	–	2.91µM	?	–	–	–	–	5.8µM	·
Cc1cccc(NC2=NC(C)(C)N=C(N)N2)c1	–	–	5.17µM	–	–	·	–	–	4.61µM	·
Cc1ccc(-c2csc3nc(-c4ccncc4)[nH]c(=O)c23)cc1	–	–	?	–	–	–	–	–	1.84µM	·
CC(=O)N(C)C1=C(N2CCOCC2)C(=O)c2ccccc2C1=O	–	–	0.461µM	8.2µM	–	–	–	16.4µM	5.8µM	·
CCCNc1nc2c(c(=O)n(C)c(=O)n2C)n1CC(O)COc1ccccc1 (centres undefined)	·	–	–	–	–	–	·	·	·	·
COc1ccc(OCC(O)Cn2c(NCCO)nc3c2c(=O)n(C)c(=O)n3C)cc1 (centres undefined)	·	–	7.31µM	–	–	–	–	–	11.6µM	·
Cc1ccc(C(C)(C)C)cc1S(=O)(=O)N1CCC(C(=O)N2CCN(c3ccc(O)cc3)CC2)CC1	–	–	9.2µM	–	·	–	?	–	·	·
CC1=C(c2ccc(C)c(C)c2)S(=O)(=O)N(Cc2ccc(C(=O)NCc3cccc(C)c3)cc2)C1=O	·	–	–	–	–	10µM	·	·	·	15.3µM
Cc1ccnc(NC(c2ccccc2)c2ccc3cccnc3c2O)c1 (centres undefined)	–	–	?	–	·	·	·	·	·	·
SMILES	TCR activator	Nrf2 activator	Nrf2 block	A549 tox-1	miR-21 FLuc	ClpP mod	FLuc enzyme inh	A549 tox-2	ARE-Fluc inh	ClpP inh valid
O=C(O)c1ccccc1NC(c1ccccc1)c1ccc2cccnc2c1O (centres undefined)	–	–	?	–	·	–	·	·	·	?
Cc1c2c(nc3c(C(=O)NC4CCCC4)cnn13)CCCC2	–	–	·	–	–	7.08µM	·	·	·	21.7µM
CCc1ccc(CNC(=O)c2cnc3sc(N4CCCCC4)nn3c2=O)cc1	·	–	–	–	–	?	·	·	·	·
CCOc1ccccc1CNC(=O)c1cnc2sc(N3CCOCC3)nn2c1=O	·	–	–	–	–	2.82µM	·	·	·	–
CCOc1ccccc1CNC(=O)c1cnc2sc(N3CCCCCC3)nn2c1=O	·	–	–	–	–	3.16µM	·	·	·	–
CCOc1ccc(CCNC(=O)c2cnc3sc(N4CCOCC4)nn3c2=O)cc1	·	–	–	–	–	?	·	·	·	·
COc1ccc(CNC(=O)c2cnc3sc(N4CCCC4)nn3c2=O)c(OC)c1	·	–	–	–	–	–	·	·	·	·
CCCNC(=O)c1cnc2sc(N3CCCCCC3)nn2c1=O	·	–	–	–	–	3.16µM	·	·	·	–
CCc1ccc(CNC(=O)c2cnc3sc(N4CCOCC4)nn3c2=O)cc1	·	–	–	–	–	3.16µM	·	·	·	–
CC(=O)OCC(NC(=O)C(Cc1ccccc1)NC(=O)OC(C)(C)C)C1OC(n2cc(F)c(=O)[nH]c2=O)C(OC(C)=O)C1OC(C)=O (centres undefined)	·	·	–	–	·	·	·	·	·	·
NC(=S)Nc1cc2ccccc2c2ccccc12	–	–	–	–	–	–	·	·	·	–
CCCCn1c(=O)n(C)c(=O)c2c(C(F)(F)F)cc(-c3ccncc3)nc21	–	–	–	–	–	?	·	·	·	·
CCCn1c(=O)c2c(C(F)(F)F)cc(-c3ccco3)nc2n(CCC)c1=O	–	–	–	–	–	1.78µM	·	·	·	6.85µM
Fc1ccc(CNc2cnccn2)cc1	–	–	–	–	–	3.16µM	·	·	·	21.7µM
O=C(Nc1ccc(F)cc1)c1sc2cc(C(F)(F)F)cnc2c1-c1cccs1	–	–	?	–	–	–	·	·	·	–
O=C(NCc1cccc(F)c1)c1ccc(NC(=O)c2nsc3ccccc23)cc1	·	–	·	–	–	–	·	·	·	?

Screening data (PubChem)
